Each structure is given as a SMILES string. This is a selection; strong and weak results do not stand in their true shares. Some of these compounds have results that are not shown, active ones among them. Active and inactive are the calls of the source. No stated cut-off is given here; in the data, active means activity change above about 30% (passing the limit was not always enough); inactive means the rest.

The chains behind the UniProt entries cited, without tags or fusion partners.
UniProt P41235, whole entry: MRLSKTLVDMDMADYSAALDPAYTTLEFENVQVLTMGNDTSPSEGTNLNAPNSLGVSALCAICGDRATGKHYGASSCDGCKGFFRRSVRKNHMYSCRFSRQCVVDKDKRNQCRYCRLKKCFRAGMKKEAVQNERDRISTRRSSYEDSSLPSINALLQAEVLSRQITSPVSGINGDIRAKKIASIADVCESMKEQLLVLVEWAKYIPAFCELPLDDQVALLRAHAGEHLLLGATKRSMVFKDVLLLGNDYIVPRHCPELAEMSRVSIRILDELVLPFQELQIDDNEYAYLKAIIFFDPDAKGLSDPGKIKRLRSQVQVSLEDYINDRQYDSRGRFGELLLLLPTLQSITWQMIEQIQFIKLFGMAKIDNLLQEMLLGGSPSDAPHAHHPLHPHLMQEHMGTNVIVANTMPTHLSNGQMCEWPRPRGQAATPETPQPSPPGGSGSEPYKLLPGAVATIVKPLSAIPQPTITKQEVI

For the experiment, the target named is Hepatocyte nuclear factor 4-alpha (Homo sapiens) (UniProt P41235). Briefly: HNF4-alpha DNA association modulation – biochemical, fluorescence polarization, FITC-DNA, primary screen (AID 1224865). The settings on record: HNF4a-FITC DNA binding, 1 h, at 10 µM, hits give high values. A general note: Polarisation of emitted light reports the rotation of a fluorescent probe.
As to `O=C(NCC1(N2CCCCC2)CCCCC1)c1cc([N+](=O)[O-])ccc1Cl`, the activity change is inactive: -0.25%.

Consider `CN1[C@@H]2CC[C@H]1CC(OC(=O)C(O)(c1ccccc1)c1ccccc1)C2` (stereo partly specified), for which the activity change is inactive: 4.18%.

As to `CC(C)N1C(=O)CC2(CCN(CCOC(=O)C(O)(c3ccccc3)c3ccccc3)CC2)C1=O`, the activity change is inactive: 1.4%.

Take `COc1cc(SC)ccc1C(=O)NCC1(N(C)C)CCCCC1`: the activity change is inactive: -3.04%.

Turning to `CCN(CC)CC(C)C(C)OC(=O)C(O)(c1ccccc1)c1ccccc1` (stereo unspecified), the activity change is inactive: -2.48%.

On to `Cc1ccc(C(=O)NCC2(N3CCCCC3)CCCCC2)cc1`, for which the activity change is inactive: 0.57%.

Turning to `CN(C)C1CCCC1OC(=O)C(O)(c1ccccc1)c1ccccc1` (stereo unspecified), the activity change is inactive: -0.89%.

Regarding `CN(C)c1ccc(C(=O)NCC2(N(C)C)CCCCC2)cc1`, the activity change was inactive: -1.73%.

As for `Cc1ccccc1C(=O)NCC1(N2CCCCC2)CCCCC1`, the activity change was inactive: -0.34%.

On to `O=C(NCC1(N2CCCCC2)CCCCC1)c1cc(F)c(F)cc1Cl`, for which the activity change was inactive: 3.01%.

On to `C=CCN1CCN(CCOC(=O)C(O)(c2ccccc2)c2ccccc2)CC1`, for which the activity change is inactive: 0.67%.

In the case of `O=C(NCC1(N2CCCCC2)CCCCC1)c1cccc(Br)c1`, the activity change is inactive: -1.19%.

In the case of `Cc1cc(C(=O)NCC2(N3CCCCC3)CCCCC2)ccc1[N+](=O)[O-]`, the activity change was inactive: -0.46%.

`CCN1CCCC(OC(=O)C2(O)c3ccccc3C=Cc3ccccc32)C1` (stereo unspecified): the activity change is inactive: -2.43%.

On to `COc1ccc(C(=O)NCC2(N(C)C)CCCCC2)cc1`, for which the activity change is inactive: -0.32%.

Regarding `CN(C)C1(CNC(=O)c2ccc(Br)cc2)CCCCC1`, the activity change is inactive: -0.54%.

`COc1cc(C(=O)NCC2(N(C)C)CCCCC2)c([N+](=O)[O-])cc1OC`: the activity change is inactive: 0.92%.

For the compound `COc1ccc(Cl)cc1C(=O)NCC1(N(C)C)CCCCC1`, the activity change is inactive: 1.07%.

Take `COc1cccc(C(=O)NCC2(N3CCCCC3)CCCCC2)c1`: the activity change was inactive: 3.67%.

In the case of `O=C(NCC1(N2CCCCC2)CCCCC1)c1cccc(Cl)c1`, the activity change is inactive: 1.46%.

For the compound `O=C(OC1CN2CCC1CC2)C(CO)(c1ccccc1)c1ccccc1` (stereo unspecified), the activity change is inactive: -1.29%.

Turning to `COc1ccc(Br)c(C(=O)NCC2(N3CCCCC3)CCCCC2)c1`, the activity change is inactive: 2.29%.

For `C=C(C)C#CC(O)(C(=O)OC1CCN(C)CC1)c1ccccc1` (stereo unspecified), the activity change is inactive: -2.81%.

With `CN(C)c1cccc(C(=O)NCC2(N(C)C)CCCCC2)c1`, the activity change is inactive: -3.08%.

On to `O=C(OCCN1CCCC1)C(O)(c1ccccc1)c1ccccc1`, for which the activity change was inactive: -2.88%.

With `CC(C)Oc1ccc(C(=O)NCC2(N(C)C)CCCCC2)cc1`, the activity change is inactive: -2.98%.

Source of the values: PubChem BioAssay AID1224865 (Sanford-Burnham Center for Chemical Genomics, 2016).
